This passage reports IC50 results from patent US9453031B2, “Chemical entities” (Fundación Centro Nacional de Investigaciones Oncológicas …, priority 2013, dated 2016).

Chains of the proteins cited; added tags and fusions are not shown.
UniProt P78527, whole entry: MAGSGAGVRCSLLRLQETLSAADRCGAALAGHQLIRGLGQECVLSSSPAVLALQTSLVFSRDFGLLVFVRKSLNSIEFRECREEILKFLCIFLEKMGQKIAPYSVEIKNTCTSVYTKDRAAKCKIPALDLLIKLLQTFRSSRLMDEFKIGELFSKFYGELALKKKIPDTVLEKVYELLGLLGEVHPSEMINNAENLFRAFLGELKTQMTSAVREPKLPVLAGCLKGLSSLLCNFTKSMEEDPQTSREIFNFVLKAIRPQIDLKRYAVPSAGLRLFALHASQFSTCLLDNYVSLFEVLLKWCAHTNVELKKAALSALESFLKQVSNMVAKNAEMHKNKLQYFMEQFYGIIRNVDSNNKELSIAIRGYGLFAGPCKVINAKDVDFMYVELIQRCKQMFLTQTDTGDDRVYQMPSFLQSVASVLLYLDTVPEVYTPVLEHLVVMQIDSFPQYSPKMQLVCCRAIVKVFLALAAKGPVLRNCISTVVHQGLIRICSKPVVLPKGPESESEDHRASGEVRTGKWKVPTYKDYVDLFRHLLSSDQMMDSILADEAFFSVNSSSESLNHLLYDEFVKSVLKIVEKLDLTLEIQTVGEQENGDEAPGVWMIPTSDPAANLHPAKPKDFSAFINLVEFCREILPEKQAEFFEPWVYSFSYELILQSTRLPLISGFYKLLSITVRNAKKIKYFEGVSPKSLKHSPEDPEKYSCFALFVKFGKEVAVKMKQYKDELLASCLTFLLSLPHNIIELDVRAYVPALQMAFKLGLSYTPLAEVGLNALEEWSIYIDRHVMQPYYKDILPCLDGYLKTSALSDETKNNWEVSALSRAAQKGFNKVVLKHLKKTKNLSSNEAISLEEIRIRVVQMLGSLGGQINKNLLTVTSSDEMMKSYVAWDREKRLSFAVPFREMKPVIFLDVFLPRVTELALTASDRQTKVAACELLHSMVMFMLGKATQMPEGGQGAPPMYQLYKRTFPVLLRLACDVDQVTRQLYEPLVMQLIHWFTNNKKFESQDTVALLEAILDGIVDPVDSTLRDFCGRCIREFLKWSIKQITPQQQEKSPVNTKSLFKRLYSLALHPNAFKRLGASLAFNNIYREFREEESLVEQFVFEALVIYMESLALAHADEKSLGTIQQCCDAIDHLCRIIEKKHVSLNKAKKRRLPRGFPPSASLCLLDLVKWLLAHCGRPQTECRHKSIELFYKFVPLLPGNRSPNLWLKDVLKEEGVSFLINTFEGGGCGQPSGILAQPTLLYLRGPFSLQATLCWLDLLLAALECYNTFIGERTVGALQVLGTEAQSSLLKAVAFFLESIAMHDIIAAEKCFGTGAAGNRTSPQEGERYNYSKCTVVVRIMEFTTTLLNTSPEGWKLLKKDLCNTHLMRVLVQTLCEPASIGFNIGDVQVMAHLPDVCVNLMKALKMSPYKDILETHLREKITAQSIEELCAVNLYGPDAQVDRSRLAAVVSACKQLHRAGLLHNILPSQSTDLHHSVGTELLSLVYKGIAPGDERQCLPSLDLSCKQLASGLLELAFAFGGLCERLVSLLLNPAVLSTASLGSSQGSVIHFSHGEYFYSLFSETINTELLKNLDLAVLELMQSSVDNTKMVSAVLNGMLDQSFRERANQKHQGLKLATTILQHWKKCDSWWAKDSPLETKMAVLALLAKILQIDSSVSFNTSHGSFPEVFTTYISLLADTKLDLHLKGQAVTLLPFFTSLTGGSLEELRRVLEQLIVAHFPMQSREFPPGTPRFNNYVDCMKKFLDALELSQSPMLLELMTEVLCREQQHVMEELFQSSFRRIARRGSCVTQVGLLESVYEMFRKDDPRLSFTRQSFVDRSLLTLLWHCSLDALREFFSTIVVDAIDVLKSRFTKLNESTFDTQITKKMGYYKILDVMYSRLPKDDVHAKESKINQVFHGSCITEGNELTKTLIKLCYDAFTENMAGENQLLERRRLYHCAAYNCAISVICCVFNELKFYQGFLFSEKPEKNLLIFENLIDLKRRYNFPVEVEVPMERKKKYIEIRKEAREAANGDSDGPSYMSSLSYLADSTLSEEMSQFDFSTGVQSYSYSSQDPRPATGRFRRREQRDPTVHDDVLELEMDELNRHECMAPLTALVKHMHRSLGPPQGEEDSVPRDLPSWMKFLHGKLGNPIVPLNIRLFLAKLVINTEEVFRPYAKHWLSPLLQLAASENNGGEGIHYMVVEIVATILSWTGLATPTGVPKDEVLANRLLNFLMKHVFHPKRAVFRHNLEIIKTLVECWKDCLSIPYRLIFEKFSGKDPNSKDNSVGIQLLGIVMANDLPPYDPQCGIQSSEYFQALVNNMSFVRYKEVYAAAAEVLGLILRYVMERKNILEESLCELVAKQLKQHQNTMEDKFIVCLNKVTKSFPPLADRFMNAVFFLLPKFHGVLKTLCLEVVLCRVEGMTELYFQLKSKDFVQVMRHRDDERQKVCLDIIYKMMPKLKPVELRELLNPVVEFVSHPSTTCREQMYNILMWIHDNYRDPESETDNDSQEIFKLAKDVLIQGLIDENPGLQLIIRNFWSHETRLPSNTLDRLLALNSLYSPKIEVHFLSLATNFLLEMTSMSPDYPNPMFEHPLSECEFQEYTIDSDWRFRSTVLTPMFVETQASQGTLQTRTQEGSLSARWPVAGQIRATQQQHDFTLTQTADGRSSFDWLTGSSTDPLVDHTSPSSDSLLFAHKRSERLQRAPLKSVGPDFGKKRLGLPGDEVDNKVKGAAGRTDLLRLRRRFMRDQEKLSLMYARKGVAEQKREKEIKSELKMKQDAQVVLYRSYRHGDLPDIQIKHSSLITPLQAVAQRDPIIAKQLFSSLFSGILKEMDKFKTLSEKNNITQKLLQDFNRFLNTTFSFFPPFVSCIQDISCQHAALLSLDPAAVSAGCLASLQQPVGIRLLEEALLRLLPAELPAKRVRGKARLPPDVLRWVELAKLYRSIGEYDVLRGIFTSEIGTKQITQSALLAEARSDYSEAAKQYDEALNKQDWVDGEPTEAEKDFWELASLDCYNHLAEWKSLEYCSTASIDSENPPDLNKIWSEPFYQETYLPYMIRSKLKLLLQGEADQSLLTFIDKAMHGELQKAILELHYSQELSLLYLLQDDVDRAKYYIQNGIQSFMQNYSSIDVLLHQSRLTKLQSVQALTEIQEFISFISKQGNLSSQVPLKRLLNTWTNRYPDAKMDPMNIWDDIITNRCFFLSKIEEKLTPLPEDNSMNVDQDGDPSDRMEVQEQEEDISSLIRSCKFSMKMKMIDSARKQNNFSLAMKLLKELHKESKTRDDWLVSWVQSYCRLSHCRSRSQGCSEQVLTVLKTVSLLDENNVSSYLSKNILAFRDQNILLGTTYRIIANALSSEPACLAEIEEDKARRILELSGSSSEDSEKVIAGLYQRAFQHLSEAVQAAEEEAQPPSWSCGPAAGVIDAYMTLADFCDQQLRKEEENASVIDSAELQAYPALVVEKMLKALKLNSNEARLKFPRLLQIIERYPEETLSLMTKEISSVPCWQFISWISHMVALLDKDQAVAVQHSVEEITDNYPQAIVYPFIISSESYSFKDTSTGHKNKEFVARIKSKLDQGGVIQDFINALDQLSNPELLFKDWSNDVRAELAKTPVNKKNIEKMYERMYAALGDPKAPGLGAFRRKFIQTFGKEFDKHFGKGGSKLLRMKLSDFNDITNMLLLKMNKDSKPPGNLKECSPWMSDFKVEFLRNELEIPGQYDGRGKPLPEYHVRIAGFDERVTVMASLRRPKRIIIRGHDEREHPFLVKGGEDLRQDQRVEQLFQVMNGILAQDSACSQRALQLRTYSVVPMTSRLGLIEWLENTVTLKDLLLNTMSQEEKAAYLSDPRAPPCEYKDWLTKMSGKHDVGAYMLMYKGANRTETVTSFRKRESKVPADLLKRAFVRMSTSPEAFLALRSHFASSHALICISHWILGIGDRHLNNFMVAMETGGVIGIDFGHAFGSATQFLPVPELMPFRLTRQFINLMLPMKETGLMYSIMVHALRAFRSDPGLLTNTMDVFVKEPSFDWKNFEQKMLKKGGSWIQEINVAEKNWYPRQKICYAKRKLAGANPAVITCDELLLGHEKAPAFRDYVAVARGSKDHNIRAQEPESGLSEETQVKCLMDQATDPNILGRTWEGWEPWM

The assay concerns the target DNA-PK (Homo sapiens (Human), UniProt P78527). The assay can be described thus: DNAPK activity assay (ADP Hunter Plus). In kind it is biochemical. The conditions noted are these: 75 μM ATP. The protocol: The kinase activity was measured by using the commercial ADP Hunter™ Plus assay available from DiscoveRx (#90-0083), which is a homogeneous assay to measure the accumulation of ADP, a universal product of kinase activity. The enzyme, DNA-PK was purchased from Promega (#V5811). The assay was done following the manufacturer recommendations with slight modifications: Mainly the kinase buffer was replace by 15 mM HEPES, pH 7.5, 10 mM MgCl2, 20 mM NaCl, 1 mM EGTA, 0.1 mg/mL BGG, 0.02% Tween 20. The DNA-PK was assayed in a titration experiment to determine the optimal protein concentration for the inhibition assay. To calculate the […] of the Compounds, serial 1:3 dilutions of the compounds were added to the enzyme at a fixed concentration (2 U/μL). The enzyme was preincubated with the inhibitor and 200 μM DNA substrate and then ATP was added to a final 75 μM concentration. Reaction was carried out for 1 hour at 37° C. Reagent A and B were sequentially added to the wells and plates were incubated for 30 min at RT. Fluorescence counts were read in a EnVision instrument (Perkin Elmer) with the recommended settings (550 and 590 nm as excitation and emission wavelengths, respectively).

By IC50 is commonly meant the midpoint of a concentration-inhibition curve. On to `CC(C)(c1nc(-c2cccc3[nH]ccc23)nc2c1OCC[C@@H]1COCCN21)S(C)(=O)=O` [Example 25], for which the IC50 came to 10 µM.
